Test results as given in patent US6046171A, “6,11-bridged erythromycin derivatives” (priority 1998, dated 2000).

System: Streptococcus Pheumoniae 5979
Experiment: in vitro antibacterial MIC, agar dilution
Assay type: cell-based
Settings: organism code ZZ; 35-37° C., 20 to 24 hours; unit assumed
Protocol: Representative compounds of the present invention were assayed in vitro for antibacterial activity as follows: Twelve petri dishes containing successive aqueous dilutions of the test compound mixed with 10 mL of sterilized Brain Heart Infusion (BHI) agar (Difco 0418-01-5) were prepared. Each plate was inoculated with 1:100 (or 1:10 for slow-growing strains, such as Micrococcus and Streptococcus) dilutions of up to 32 different microorganisms, using a Steers replicator block. The inoculated plates were incubated at 35-37° C. for 20 to 24 hours. In addition, a control plate, using BHI agar containing no test compound, was prepared and incubated at the beginning and end of each test.
An additional plate containing a compound having known susceptibility patterns for the organisms being tested and belonging to the same antibiotic class as the test compound was also prepared and incubated as a further control, as well as to provide test-to-test comparability. Erythromycin A was used for this purpose.
After incubation, each plate was visually inspected. The minimum inhibitory concentration (MIC) was defined as the lowest concentration of drug yielding no growth, a slight haze, or sparsely isolated colonies on the inoculum spot as compared to the growth control.

CC[C@H]1OC(=O)[C@H](C)[C@@H](O[C@H]2C[C@@](C)(OC)[C@@H](O)[C@H](C)O2)[C@H](C)[C@@H](O[C@@H]2O[C@H](C)C[C@H](N(C)C)[C@H]2O)[C@](C)(O)C[C@@H](C)C(=O)[C@H](C)[C@@H](O)[C@]1(C)O [Ery. A, Erythromycin A, reference compound]
MIC: > 128 µg/mL
